Molecules are shown by their SMILES.

Among the data in ChEMBL document CHEMBL1127846, “Influence of amine substituents on 5-HT2A versus 5-HT2C binding of phenylalkyl- and indolylalkylamines” (J Med Chem, 1994) are Ki values, retold here.

The assay deals with T1, 5-hydroxytryptamine receptor 2C (Rattus norvegicus, UniProt P08909).
T1 sequence (P08909 whole entry): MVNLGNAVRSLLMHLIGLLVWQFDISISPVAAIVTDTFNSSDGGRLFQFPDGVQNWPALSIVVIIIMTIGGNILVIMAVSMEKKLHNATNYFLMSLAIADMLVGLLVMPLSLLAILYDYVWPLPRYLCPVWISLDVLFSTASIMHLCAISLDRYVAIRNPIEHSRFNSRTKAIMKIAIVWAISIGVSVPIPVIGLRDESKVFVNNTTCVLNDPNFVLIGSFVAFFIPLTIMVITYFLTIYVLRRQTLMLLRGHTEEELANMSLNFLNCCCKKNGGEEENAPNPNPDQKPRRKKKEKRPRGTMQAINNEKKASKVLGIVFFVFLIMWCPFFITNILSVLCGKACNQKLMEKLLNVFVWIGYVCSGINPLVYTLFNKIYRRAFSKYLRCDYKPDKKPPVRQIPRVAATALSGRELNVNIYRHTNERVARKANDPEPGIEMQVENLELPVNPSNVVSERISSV
The experiment in a line: Affinity against 5-hydroxytryptamine 2C receptor in J1 cells transfected with the rat 5-HT2C gene labeled with [3H]mesulergine. The class given is cell-based. Summed up: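 Homogenates of J1 cells carrying the rat 5-HT1C (5-HT2C) gene, labeled with [3H]mesulergine. Competing drug and radioligand incubated at 37 °C for 30 min, then filtered through glass-fiber filters and counted by liquid scintillation. Ki given as mean and SEM of at least two experiments, each done in triplicate.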

A word on the Ki: it is the dissociation constant of the complex between target and ligand, obtained from inhibition or displacement. High values mean weaker binding, low ones tighter binding. As to `COc1ccc2[nH]cc(CCN(C)C)c2c1` [MEBUFOTENIN], the affinity corresponds to a Ki of 960 nM.
